Measured values taken from patent US11484625B2, “Stem cells and devices for bone regeneration” (Alfred E. Mann Institute for Biomedical Engineering at the …, priority 2017, dated 2022).
Entries after “also recorded” stand apart in the source; their conditions may differ.

Test system: femoral CSD
Experiment: Long bone critical-sized defect model (2-mm femoral ostectomy)
Format: in vivo, nude mice
Excerpt: Mice were placed in ventral recumbence with the left hind limb in extension. An anterolateral approach was used to expose the anterior surface of the femur. Briefly, after a lateral longitudinal cutaneous incision along the femur extending from the hip joint to the stifle joint was made, the fascia lata was incised to expose the full length of the femur, preserving the sciatic nerve caudally and the articular capsule distally. An anterior polyether ether ketone (PEEK) microlocking plate (MouseFix Plate; RISystem AG, Davos, Switzerland) was applied on the anterior femoral side. Next, four holes were drilled using a 0.3-mm drill bit (Drill Bit 0.30 mm; RISystem AG, Davos, Switzerland) and four self-tapping locking screws (MouseFix Screw 2 mm; RISystem AG, Davos, Switzerland) were inserted through the most proximal and most distal holes of the plate and locked to secure the plate. Gigli saws (0.22 mm; RISystem AG, Davos, Switzerland) were then inserted, one each in the two slots of the jig (Drill and Saw Guide; RISystem AG, Davos, Switzerland), and a 2-mm-long mid-diaphyseal femoral ostectomy was subsequently performed. The defect was either left empty or filled with different combinations of the PCL scaffolds and cells indicated to test long bone regenerative ability.
Radiographs were taken every two weeks to evaluate the bone union process until 3 months after the surgery. Immediately after euthanasia at 3 months post-surgery, all left femoral bones were excised. All overlaying muscle tissue was carefully removed. The femoral bones were fixed in 4% paraformaldehyde (pH 7.4) overnight. The plate and screws were removed and the samples were then decalcified in 10% EDTA (pH 7.4) for four weeks. Samples were passed through serial concentrations of ethanol for embedding in paraffin wax and sectioned at 7 μm using a microtome (Leica). Deparaffinized sections were stained with Hematoxylin and Eosin using standard procedures for general morphology.

## BMP: Bone morphogenetic protein 2, growth factor
Injected in the defect site every 3 days for the first two weeks, 8-week period
  bone regeneration with multiple doses: union of the cortical bone at the defect site was detectable radiographically; also recorded: accelerate the healing
Multiple doses injected in the defect site
  ectopic bone formation: some ectopic bone formation surrounding the injury site
Multiple doses, BMP vs IHH agonist
  bone regenerative ability, compared: stronger bone regenerative ability than IHH agonist
